Consider one compound from patent US20260042764A1, “COMPOSITIONS AND METHODS FOR INHIBITION OF KRAS” (TheRas, Inc., priority 2022, published 2026).

The chains behind the UniProt entries cited, without tags or fusion partners. Residues count along the entry.
UniProt P01116, 2-169 isoform 2 G12C limits assumed: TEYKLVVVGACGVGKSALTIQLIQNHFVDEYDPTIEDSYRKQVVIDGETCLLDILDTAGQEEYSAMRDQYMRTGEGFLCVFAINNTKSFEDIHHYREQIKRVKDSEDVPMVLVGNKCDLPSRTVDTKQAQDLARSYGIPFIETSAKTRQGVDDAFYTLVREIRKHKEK
UniProt P01116, 2-169 isoform 2 G12V limits assumed: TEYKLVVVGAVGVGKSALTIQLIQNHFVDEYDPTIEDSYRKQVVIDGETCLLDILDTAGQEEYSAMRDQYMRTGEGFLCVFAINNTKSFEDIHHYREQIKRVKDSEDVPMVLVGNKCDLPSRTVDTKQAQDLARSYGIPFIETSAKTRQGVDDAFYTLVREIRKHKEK

Experiment [1] concerns GP2d cells (KRAS G12D). Briefly: Cell-based pERK HTRF assay in GP2d cell (Biological Example 2). Background: In TR-FRET formats the signal depends on donor and acceptor labels being close together.
For experiment [2], the target named is Avi-KRAS G12C (2-169) GTP/RAF1 RBD-3xFLAG (51-131) (Homo sapiens, UniProt P01116, G12C). In words: Raf1-KRAS G12C-GTP disruption HTRF assay (Biological Example 3). The settings on record: read-out: Raf1-GTP-KRAS G12C disruption, GTP-loaded. As to the method:
(§1) Biological Example 3: Disrupting RAS-Effector Binding HTRF Assay
(§2) A protein:protein interaction (PPI) Homogeneous Time Resolved Fluorescence (HTRF) assay was used to determine the effectiveness of compounds in disrupting KRAS protein and effector (RAF1) binding.
(§3) The HTRF assay used the following reagents and proteins: (i) 50 nM Avi-KRAS G12D (2-169) GTP/RAF1 RBD-3xFLAG (51-131): (ii) 50 nM Avi-KRAS G12C (2-169) GTP/RAF1 RBD-3xFLAG (51-131): (iii) 50 nM Avi-KRAS G12V (2-169) GTP/RAF1 RBD-3xFLAG (51-131); (iv) 50 nM Avi-KRAS WT (2-169) GTP/RAF1 RBD-3xFLAG (51-131); and (v) 75 nM 3xFLAG-RAF1 RBD (51-131)-Avi. The assay buffer included: 50 mM Tris pH 7.5 (Invitrogen, 15567-027), 100 mM NaCl (Sigma, S5150-IL), 5 mM MgCl2 (Sigma, 63069), 0.1% BSA (Sigma, A7030), 0.01% Tween 20 (Sigma, P7949), 10% DMSO (Cell Signaling, 12611). The bead buffer included: 50 mM Tris pH 7.5 (Invitrogen, 15567-027), 0.01% Tween 20 (Sigma, P7949). An assay volume of 20 μL was used in a 384 well plate-low volume format. Compound titration: 30-0.005 μM, 3x dilution series.
(§4) The HTRF assay employed the following protocol: […]
(§5) Plates were analyzed on an Envision plate reader using the following setting: Excitation 320 nm, Bandwidth 75 nm; Emission 615 nm, Bandwidth 85 nm; Gain 100%; Flashes 100; Lag 60 μs. […] Data was plotted and analyzed using Prism 8. […]

Experiment [3] addresses Avi-KRAS G12V (2-169) GTP/RAF1 RBD-3xFLAG (51-131) (Homo sapiens, UniProt P01116, G12V). Briefly: Raf1-KRAS G12V-GTP disruption HTRF assay (Biological Example 3). To be noted: read-out: Raf1-GTP-KRAS G12V disruption, GTP-loaded. As to the method: as §1, §2, §3, §4, §5
Experiment [4] relates to H358 cells (KRAS G12C). Briefly: Cell-based pERK HTRF assay in H358 cells (Biological Example 5). To be noted: read-out: H358 pERK HTRF IC50. As to the method: Biological Example 5: Cell-based PERK HTRF assay in AsPC-1, SW1900, HPAC, Capan-2, RKN, H358, HCT116, KP-2, H1573, A549, MKN1, and HT1080 cells
The inhibition of ERK phosphorylation, as measured using the HTRF Advanced Phospho-ERK 1/2 (Thr202/Tyr204) Detection Assay kit (Perkin Elmer), was used to determine the effectiveness of test compounds in disrupting KRAS-driven protein/effector signaling in cells.
On day 1, cells were seeded into 96-well plates at 2.5×10^4 cells/well in 100 μL of complete growth media supplemented with 10% fetal bovine serum (FBS) and incubated at 37° C., in the presence of 5% CO2.
On day 2, cells were treated with compounds diluted in DMSO at 0.25% final DMSO concentration. Compounds were dosed in a 9-point concentration curve with three-fold dilution between concentrations. Cells were incubated in the presence of compound for two hours at 37° C. […]
Following this incubation period, plates were centrifuged at 500×g for one minute and analyzed on a CLARIOstar plate reader. Data was imported into Microsoft Excel and the signal from the 665 nm channel was divided by the signal from the 620 nm channel. % pERK was calculated as: […]
Data was imported to the Prism software package (Graphpad) and EC50 values were calculated using the log (inhibitor) vs, response—variable slopc (Four parameters) model.

Experiment [5] relates to H358 cells (KRAS G12C). In words: 3D Cell viability assay in H358 cells (Biological Example 6). To be noted: read-out: H358 3D cell viability IC50; H358 (KRAS G12C) spheroids, 72 hours. The method, then: Biological Example 6: 3D Cell viability assay in AsPC-1, SW1900, HPAC, Capan-2, RKN, H358, HCT116, KP-2, H1573, A549, MKN1, and HT1080 cells
The inhibition of cellular viability as a result of test compound treatment in a spheroid assay was measured using the CellTiter-Glow 3D Cell Viability Assay (Promega).
On Day 1, 1000 cells per well were seeded in 150 μL of complete growth media supplemented with 10% fetal bovine serum (FBS) and incubated at 37° C., in the presence of 5% CO2 in 96-well ultra-low attachment microplates (Corning) for 48 hours undisturbed to allow spheroids to form.
Following spheroid formation, cells were treated with compounds diluted in DMSO at 0.25% final DMSO concentration. Compounds were dosed in a 9-point concentration curve with three-fold dilution between concentrations. […]
Following this incubation period, the kit-provided CTG reagent was allowed to equilibrate for 30 minutes at room temperature, 150 μL of equilibrated CTG reagent was added to each well, and the plate was sealed before shaking at 250 rpm for 10 minutes at room temperature to lyse the cells, 150 μL of lysate per well was transferred to a 96-well plate and luminescence was read on a CLARIOstar plate reader.
Data was imported into the Prism software package (Graphpad) and EC50 values were calculated using the log (inhibitor) vs, response—variable slope (Four parameters) model.

Like-named read-outs stand apart in the source and are kept apart here.

With `CCN(c1nc(OC[C@@]23CCCN2C[C@H](F)C3)nc2c(F)c(-c3ccc(F)c4sc(N)c(C#N)c34)c(C(F)(F)F)cc12)[C@H]1CCN(C(=O)OC2COC2)C1`, the IC50 in experiment [1] (read-out: PERK-Gp2D-, pERK HTRF, class symbols) was < 100 nM; in experiment [1] (read-out: pERK-Gp2D), < 100 nM; in experiment [2], < 100 nM; in experiment [3], 100 to 1000 nM; in experiment [4], < 100 nM; in experiment [5] it was < 100 nM.
